Drawing on patent US10538558B2, “Inhibition of TCR signaling with peptide variants” (priority 2009, dated 2020), this text covers solubility for 1 molecule.

The data set is described as follows: Solubility. The settings on record: aqueous solutions.

In the case of `CC[C@H](C)[C@H](NC(=O)[C@H](CCC(N)=O)NC(=O)[C@H](CO)NC(=O)[C@H](Cc1ccccc1)NC(=O)[C@H](CC(N)=O)NC(=O)[C@H](Cc1ccccc1)NC(=O)CNC(=O)CNC(=O)[C@H](Cc1ccccc1)NC(=O)[C@H](Cc1ccc(O)cc1)NC(=O)[C@H](C)NC(=O)[C@H](CC(C)C)NC(=O)[C@@H](NC(=O)[C@@H]1CCCN1C(=O)[C@@H](NC(=O)[C@H](C)NC(=O)[C@H](Cc1ccc(O)cc1)NC(=O)[C@@H](N)CCSC)[C@@H](C)O)[C@@H](C)O)C(=O)N[C@@H](CC(C)C)C(=O)O`, the solubility entry is “insoluble in aqueous solutions”.
